Laboratory results: patent publication US20260242395A1, “AMINOHETEROARYL KINASE INHIBITORS” (ALLORION THERAPEUTICS INC, priority 2022, published 2026)
pIC50: −log10 of the molar value.

By UniProt entry, the sequences of proteins in these tests, tags left out.
UniProt P11802, whole entry: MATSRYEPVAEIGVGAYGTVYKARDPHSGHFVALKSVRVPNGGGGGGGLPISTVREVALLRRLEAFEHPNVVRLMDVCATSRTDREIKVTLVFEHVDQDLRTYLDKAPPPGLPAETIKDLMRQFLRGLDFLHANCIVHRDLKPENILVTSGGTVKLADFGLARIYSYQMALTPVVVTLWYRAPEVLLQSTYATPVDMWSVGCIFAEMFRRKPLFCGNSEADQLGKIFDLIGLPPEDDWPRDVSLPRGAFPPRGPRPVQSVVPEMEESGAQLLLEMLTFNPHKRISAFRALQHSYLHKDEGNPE
UniProt Q00534, whole entry: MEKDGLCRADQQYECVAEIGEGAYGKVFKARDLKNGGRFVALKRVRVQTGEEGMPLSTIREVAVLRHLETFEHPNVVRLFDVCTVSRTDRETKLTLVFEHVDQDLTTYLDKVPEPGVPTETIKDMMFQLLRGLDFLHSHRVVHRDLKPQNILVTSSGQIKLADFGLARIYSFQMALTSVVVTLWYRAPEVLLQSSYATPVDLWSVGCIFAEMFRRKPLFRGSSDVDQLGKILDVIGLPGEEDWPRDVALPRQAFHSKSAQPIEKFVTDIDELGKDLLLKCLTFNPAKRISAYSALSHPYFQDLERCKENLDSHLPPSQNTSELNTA
UniProt P06493, whole entry: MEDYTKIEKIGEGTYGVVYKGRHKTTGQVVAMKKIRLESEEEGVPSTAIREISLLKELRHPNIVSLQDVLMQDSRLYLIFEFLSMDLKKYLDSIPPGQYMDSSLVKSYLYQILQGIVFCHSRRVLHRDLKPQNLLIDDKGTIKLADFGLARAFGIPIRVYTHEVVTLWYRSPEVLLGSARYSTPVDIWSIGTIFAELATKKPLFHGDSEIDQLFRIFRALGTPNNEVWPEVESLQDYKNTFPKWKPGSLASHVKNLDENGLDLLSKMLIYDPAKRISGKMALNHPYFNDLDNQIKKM
UniProt P50613, whole entry: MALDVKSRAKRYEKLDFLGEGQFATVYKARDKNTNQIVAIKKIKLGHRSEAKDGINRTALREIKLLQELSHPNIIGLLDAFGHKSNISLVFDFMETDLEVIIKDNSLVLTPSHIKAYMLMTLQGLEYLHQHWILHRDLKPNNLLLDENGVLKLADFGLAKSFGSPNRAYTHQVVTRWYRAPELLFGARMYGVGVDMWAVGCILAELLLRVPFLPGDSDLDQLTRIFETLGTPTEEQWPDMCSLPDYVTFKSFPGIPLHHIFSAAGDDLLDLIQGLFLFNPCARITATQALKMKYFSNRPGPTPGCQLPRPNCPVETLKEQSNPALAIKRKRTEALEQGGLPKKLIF
UniProt P50750, whole entry: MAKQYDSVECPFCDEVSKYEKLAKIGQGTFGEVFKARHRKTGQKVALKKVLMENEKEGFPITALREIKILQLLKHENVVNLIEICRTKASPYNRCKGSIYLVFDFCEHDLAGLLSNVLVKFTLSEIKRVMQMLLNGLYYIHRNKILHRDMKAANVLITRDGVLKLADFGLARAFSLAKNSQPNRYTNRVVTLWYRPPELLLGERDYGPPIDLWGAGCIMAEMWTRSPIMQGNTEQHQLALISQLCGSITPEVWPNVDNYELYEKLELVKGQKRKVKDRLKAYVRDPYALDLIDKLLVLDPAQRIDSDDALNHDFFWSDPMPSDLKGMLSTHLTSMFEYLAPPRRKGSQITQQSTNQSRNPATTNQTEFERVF
UniProt P30281, whole entry partner: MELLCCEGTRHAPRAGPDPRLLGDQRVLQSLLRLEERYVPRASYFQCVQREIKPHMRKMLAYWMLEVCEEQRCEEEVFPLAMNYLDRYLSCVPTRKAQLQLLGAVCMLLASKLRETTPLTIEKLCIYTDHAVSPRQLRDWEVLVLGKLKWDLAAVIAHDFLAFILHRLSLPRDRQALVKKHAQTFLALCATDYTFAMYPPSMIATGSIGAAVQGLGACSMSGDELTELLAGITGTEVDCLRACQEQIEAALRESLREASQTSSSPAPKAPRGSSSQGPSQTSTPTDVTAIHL
UniProt P24385, whole entry partner: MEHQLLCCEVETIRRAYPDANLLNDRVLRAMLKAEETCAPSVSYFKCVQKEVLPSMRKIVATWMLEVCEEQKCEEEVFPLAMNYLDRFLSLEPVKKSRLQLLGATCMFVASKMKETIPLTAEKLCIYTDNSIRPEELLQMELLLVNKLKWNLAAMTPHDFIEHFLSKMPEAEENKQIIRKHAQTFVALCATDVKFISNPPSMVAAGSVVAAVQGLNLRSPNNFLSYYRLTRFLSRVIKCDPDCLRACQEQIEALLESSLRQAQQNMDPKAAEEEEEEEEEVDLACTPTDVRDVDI
UniProt P51948, whole entry partner: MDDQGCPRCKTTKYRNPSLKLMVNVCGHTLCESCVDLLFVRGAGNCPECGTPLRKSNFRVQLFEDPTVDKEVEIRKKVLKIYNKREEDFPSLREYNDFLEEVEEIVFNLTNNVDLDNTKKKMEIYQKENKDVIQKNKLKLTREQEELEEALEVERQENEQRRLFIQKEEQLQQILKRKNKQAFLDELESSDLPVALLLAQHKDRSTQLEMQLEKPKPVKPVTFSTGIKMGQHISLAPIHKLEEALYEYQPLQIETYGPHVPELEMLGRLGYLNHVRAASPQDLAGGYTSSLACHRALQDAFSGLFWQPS
UniProt P51946, whole entry partner: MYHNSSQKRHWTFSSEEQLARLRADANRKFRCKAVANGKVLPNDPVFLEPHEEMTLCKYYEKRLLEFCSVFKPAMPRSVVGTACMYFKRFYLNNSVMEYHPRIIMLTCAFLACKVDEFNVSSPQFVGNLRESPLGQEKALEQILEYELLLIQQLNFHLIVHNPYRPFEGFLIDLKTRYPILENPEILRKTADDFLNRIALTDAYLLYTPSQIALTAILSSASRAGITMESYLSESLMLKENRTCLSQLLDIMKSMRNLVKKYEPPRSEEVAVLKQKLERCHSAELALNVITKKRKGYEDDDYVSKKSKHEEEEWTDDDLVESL
UniProt P14635, whole entry partner: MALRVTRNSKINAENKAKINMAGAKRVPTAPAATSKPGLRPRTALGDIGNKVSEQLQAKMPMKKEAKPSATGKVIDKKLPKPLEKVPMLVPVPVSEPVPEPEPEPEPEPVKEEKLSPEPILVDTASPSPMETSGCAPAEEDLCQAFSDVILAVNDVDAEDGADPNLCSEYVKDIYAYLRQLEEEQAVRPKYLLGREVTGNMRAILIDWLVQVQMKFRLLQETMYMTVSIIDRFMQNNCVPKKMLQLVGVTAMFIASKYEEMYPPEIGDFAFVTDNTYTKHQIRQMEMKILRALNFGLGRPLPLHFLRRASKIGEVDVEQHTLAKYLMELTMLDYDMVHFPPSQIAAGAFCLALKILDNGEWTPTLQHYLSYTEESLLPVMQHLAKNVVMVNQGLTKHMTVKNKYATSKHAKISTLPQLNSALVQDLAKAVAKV
UniProt O60563, whole entry partner: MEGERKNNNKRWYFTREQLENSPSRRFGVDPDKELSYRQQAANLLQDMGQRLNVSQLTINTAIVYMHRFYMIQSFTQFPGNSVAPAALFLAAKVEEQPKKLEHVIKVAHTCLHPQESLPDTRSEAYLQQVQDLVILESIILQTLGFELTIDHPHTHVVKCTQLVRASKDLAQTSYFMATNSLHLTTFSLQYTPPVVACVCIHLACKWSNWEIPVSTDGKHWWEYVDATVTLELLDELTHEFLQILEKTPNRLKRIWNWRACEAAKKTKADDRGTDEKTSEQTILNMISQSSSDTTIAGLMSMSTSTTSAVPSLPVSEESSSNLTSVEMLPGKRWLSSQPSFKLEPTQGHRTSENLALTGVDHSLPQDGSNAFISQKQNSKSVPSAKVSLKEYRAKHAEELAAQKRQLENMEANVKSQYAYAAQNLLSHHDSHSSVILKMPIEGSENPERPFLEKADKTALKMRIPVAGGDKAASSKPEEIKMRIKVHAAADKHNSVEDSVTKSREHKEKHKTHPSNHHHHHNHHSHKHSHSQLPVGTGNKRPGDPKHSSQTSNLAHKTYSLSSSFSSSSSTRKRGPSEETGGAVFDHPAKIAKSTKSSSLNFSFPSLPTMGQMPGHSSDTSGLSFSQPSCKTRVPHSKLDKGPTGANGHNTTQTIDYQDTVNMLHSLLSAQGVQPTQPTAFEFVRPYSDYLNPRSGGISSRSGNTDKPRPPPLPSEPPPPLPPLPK

Legend:
CDK4/CyclinD1 = CDK4/CyclinD1 (Homo sapiens, UniProt P11802); assay: CDK4/CyclinD1 kinase inhibitory activity (Caliper mobility shift); settings: read-out: CDK4/Cyclin D1 IC50; enzyme 20 nM, ATP 672 uM, 28° C. 30 min
Experimental: CDK4/CyclinD1 kinase inhibitory activity (IC50): 5 μl of various dilutions of test compound in 1× kinase buffer (20 mM HEPES, pH 7.5, 10 mM MgCl2, 2 mM DTT and 0.01% Triton X-100) was mixed with 10 μL of either CDK4/Cyclin D1 (ProQinase, 0142-0143-1 #, final concentration 20 nM in 1× Kinase buffer) or in 384 plates and incubated at room temperature for 10 min. To initiate each reaction, 10 μL of peptide solution containing fluorescently-labeled-peptide 8(5-FAM-IPTSPITTTYFFFKKK-COOH, GL, 112396 #, final concentration 3000 nM) and ATP (final concentration 672 uM for CDK4/CyclinD1) in 1×Kinase buffer was added to each of the wells containing test compound and CDK4/CyclinD1 mixture. The reaction is then allowed to proceed at 28° C. for 30 min and terminated by the addition of 25 μL stop buffer (100 mM HEPES pH 7.5, 50 mM EDTA, 0.2% Coating Reagent #3 (Perkin Elmer, 760050 #) and 0.015% Brij-35).
(§1) Following the kinase reaction, Caliper EZ reader II (Downstream voltages: −500V, Upstream voltages: −2250V, Base pressure −0.5 PSI, Screen pressure −1.2 PSI) was used to separate the phosphorylated (product) and the unphosphorylated (substrate) fluorescently-labeled peptide 8 based on their different mobility. Both substrate and product were measured and the ratio of these values were used to generate % conversion by Caliper EZ reader II. These conversion values were then transformed into % inhibition of kinase activity using the formula: % Inhibition=[(MA−X)/(MA−MI)]×100% where MA=conversion value of DMSO only controls, MI=conversion value of no enzyme controls and X=conversion value at any given compound dose. IC50 values were then calculated by plotting dose-response curves and then using the XLfit application in Excel software.

CDK6/CyclinD3 = CDK6/CyclinD3 (Homo sapiens, UniProt Q00534); assay: CDK6/CyclinD3 kinase inhibitory activity (Caliper mobility shift); settings: read-out: CDK6/Cyclin D3 IC50; enzyme 15 nM, ATP 800 μM, 28° C. 30 min
Experimental: CDK6/CyclinD3 kinase inhibitory activity (IC50): 5 μl of various dilutions of test compound in 1× kinase buffer (50 mM HEPES pH 7.5, 10 mM MgCl2, 2 mM DTT and 0.01% Brij-35) was mixed with 10 μL of CDK6/CyclinD3 (Carna, 04-107 #, final concentration 15 nM in 1× Kinase buffer) in 384 plates and incubated at room temperature for 10 min. To initiate each reaction, 10 μL of peptide solution containing fluorescently-labeled -peptide 8(5-FAM-IPTSPITTTYFFFKKK-COOH, GL, 112396 #, final concentration 3000 nM) and ATP (final concentration 800 μM for CDK6/CyclinD3 in 1× Kinase buffer was added to each of the wells containing test compound and CDK6/CyclinD3. The reaction is then allowed to proceed at 28° C. for 30 min and terminated by the addition of 25 μL stop buffer (100 mM HEPES pH 7.5, 50 mM EDTA, 0.2% Coating Reagent #3 (Perkin Elmer, 760050 #) and 0.015% Brij-35).
as §1

CDK1/CyclinB = CDK1/CyclinB (Homo sapiens, UniProt P06493); assay: CDK1/CyclinB kinase inhibitory activity (Caliper mobility shift); settings: read-out: CDK1/Cyclin B1 IC50; enzyme 3 nM, ATP 20 μM, 28° C. 30 min
Experimental: CDK1/CyclinB kinase inhibitory activity (IC50): 5 μl of various dilutions of test compound in 1× kinase buffer (50 mM HEPES pH 7.5, 10 mM MgCl2, 2 mM DTT and 0.01% Brij-35) was mixed with 10 μL of CDK1/CyclinB (Millipore, 14-450M #, final concentration 3 nM in 1× Kinase buffer) in 384 plates and incubated at room temperature for 10 min. To initiate each reaction, 10 μL of peptide solution containing fluorescently-labeled-peptide 18(5-FAM-QSPKKG-CONH2) (GL, 114202 #, final concentration 3000 nM) and ATP (final concentration 20 μM) in 1× Kinase buffer was added to each of the wells containing test compound and CDK1/CyclinB mixture. […]
as §1, with “18” for “8”, “These conversion values were then transformed into % inhibition of kinase activity using the formula: % Inhibition=[(MA−X)/(MA−MI)]×100% where MA=conversion value of DMSO only controls, MI=conversion value of no enzyme controls and X=conversion value at any given compound dose.” left out

CDK2/CyclinE1 = CDK2/CyclinE1 (Homo sapiens, UniProt P24941); assay: CDK2/CyclinE1 kinase inhibitory activity (Caliper mobility shift); settings: read-out: CDK2/Cyclin E1 IC50; enzyme 3 nM, ATP 77 μM, 28° C. 30 min
Experimental: CDK2/CyclinE1 kinase inhibitory activity (IC50): 5 μl of various dilutions of test compounds in 1×kinase buffer (50 mM HEPES pH 7.5, 10 mM MgCl2, 2 mM DTT and […] Brij-35) were mixed with 10 μL of CDK2/CyclinE1 (Carna, 04-165 #, final concentration 3 nM in 1×Kinase buffer) in 384 plates and incubated at room temperature for 10 min. To initiate each reaction, 10 μL of peptide solution containing fluorescently-labeled-peptide 18(5-FAM-QSPKKG-CONH2) (GL, 114202 #, final concentration 3000 nM) and ATP (final concentration 77 μM) in 1×Kinase buffer was added to each of the wells containing test compound and CDK2/CyclinE1 mixture. […]
as §1, with “18” for “8”, “These conversion values were then transformed into % inhibition of kinase activity using the formula: % Inhibition=[(MA−X)/(MA−MI)]×100% where MA=conversion value of DMSO only controls, MI=conversion value of no enzyme controls and X=conversion value at any given compound dose.” left out

CDK7/CyclinH/MAT1 = CDK7/CyclinH/MAT1 (Homo sapiens, UniProt P50613); assay: CDK7/CyclinH/MAT1 kinase inhibitory activity (Caliper mobility shift); settings: read-out: CDK7/Cyclin H/MAT1 IC50; enzyme 12.5 nM, ATP 70 μM, 28° C. 30 min
Experimental: (§2) CDK7/CyclinH/MAT1 kinase inhibitory activity (IC50): 5 μl of various dilutions of test compound in 1× kinase buffer (20 mM HEPES, pH 7.5, 10 mM MgCl2, 2 mM DTT and 0.01% Triton X-100) was mixed with 10 μL of CDK7/CyclinH/MAT1 (Millipore, 14-476M #, final concentration 12.5 nM in 1× Kinase buffer) in 384 plates and incubated at room temperature for 10 min. To initiate each reaction, 10 μL of peptide solution containing fluorescently-labeled-peptide CTD3 (5-FAM-[…], GL, SY346885 #, final concentration 3000 nM) and ATP (final concentration 70 μM) in 1× Kinase buffer was added to each of the wells containing test compound and CDK7/CyclinH/MAT1 mixture. […]
(§3) Following the kinase reaction, Caliper EZ reader II (Downstream voltages: −500V, Upstream voltages: −2250V, Base pressure −0.5 PSI, Screen pressure −1.2 PSI) was used to separate the phosphoiylated (product) and the unphosphorylated (substrate) fluorescently-labeled peptide CTD3 based on their different mobility. Both substrate and product were measured and the ratio of these values were used to generate % conversion by Caliper EZ reader II. […] IC50 values were then calculated by plotting dose-response curves and then using the XLfit application in Excel software.

CDK9/CyclinT1 = CDK9/CyclinT1 (Homo sapiens, UniProt P50750); assay: CDK9/CyclinT1 kinase inhibitory activity (Caliper mobility shift); settings: read-out: CDK9/Cyclin T1 IC50; enzyme 12.5 nM, ATP 10M, 28° C. 30 min
Experimental: as §2, with “CDK9/CyclinT1” for “CDK7/CyclinH/MAT1”, “14-685M” for “14-476M”, “fluorescently-labeled -peptide” for “fluorescently-labeled-peptide”, “[…])” for “70 μM)”
as §3, with “phosphorylated” for “phosphoiylated”

| pIC50 (CDK4/CyclinD1) | pIC50 (CDK6/CyclinD3) | pIC50 (CDK1/CyclinB) | pIC50 (CDK2/CyclinE1) | pIC50 (CDK7/CyclinH/MAT1) | pIC50 (CDK9/CyclinT1) | Structure (SMILES) |
| --- | --- | --- | --- | --- | --- | --- |
| > 8.00 | 6.00 to 7.00 |  |  |  |  | CC(NC1CC1)c1cnc2c(F)cc(-c3nc(N[C@@H]4CCOC[C@H]4O)ncc3Cl)cc2c1 (single isomer, unassigned) [79a] |
| > 8.00 | 7.00 to 8.00 | 6.00 to 7.00 | 6.00 to 7.00 | < 6.00 | 7.00 to 8.00 | CC1(C)Cc2cnc3c(F)cc(-c4nc(Nc5ccc(-c6c[nH]cn6)cn5)ncc4Cl)cc3c2CN1 |
| 7.00 to 8.00 | 6.00 to 7.00 |  |  |  |  | CC(NC1CC1)c1cnc2c(F)cc(-c3nc(N[C@@H]4CCOC[C@H]4O)ncc3Cl)cc2c1 (single isomer, unassigned) [79b] |
| > 8.00 | 7.00 to 8.00 |  |  |  |  | CCc1nc2c(F)cc(-c3nc(N[C@@H]4CCOC[C@H]4O)ncc3Cl)cc2cc1C(C)(C)O |

| Structure (SMILES) | pIC50 (CDK4/CyclinD1) | pIC50 (CDK6/CyclinD3) | pIC50 (CDK1/CyclinB) | pIC50 (CDK2/CyclinE1) | pIC50 (CDK7/CyclinH/MAT1) | pIC50 (CDK9/CyclinT1) |
| --- | --- | --- | --- | --- | --- | --- |
| CC(C)(O)c1ccnc2ccc(-c3nc(N[C@@H]4CCOC[C@H]4O)ncc3Cl)cc12 | 7.00 to 8.00 | 6.00 to 7.00 |  |  |  |  |
